Changes are numbered by the printed parent chain.
B1: Fab16 (Fab, V domains shown)
VH: [about 120 residues not listed]
VL: DIQMTQSPSSLSASVGDRVTITCRASQDVTTAVAWYQQKPGKAPKLLIYSASFLYSGVPSRFSGSRSGTDFTLTISSLQPEDFATYYCQQHYTTPPTFGQGTKVEIK
B2: Fab18 (Fab, V domains shown)
VH: [about 120 residues not listed]
VL: B1 VL with T30E
B3: Fab8 (Fab, V domains shown)
VH: [about 120 residues not listed]
VL: B1 VL with T30D

What follows are binders tested against T1, recombinant human Her2 ECD (Human Her2/ErbB2 protein, catalog #10004-HCCH, Sino Biological Inc.) (human, UniProt P04626, in part) (assay: SPR (Biacore T200), HER2 ECD amine-coupled on CM5 chip, Fab injected at 1.56-50 nM, 1:1 Langmuir fit).
T1 construct: extracellular domain; also called HER2 antigen; HER2 target

In order of falling Kd:
1. B2  87 nM
2. B1  32 nM
3. B3  2 nM
